The subject of one series is IM-9 target cells. The following applies: 10 mM. The protocol: In further studies, NCC were treated with different concentrations of protein phosphatase inhibitors for two hours and labeled IM-9 target cells were added for a four-hour microcytotoxicity assay (Table 8). […] To determine if the activating effects of the protein phosphatase inhibitors were reversible, NCC were treated for 90 minutes with NaF and vanadate and then the inhibitors were removed prior to addition of the labeled target cells.

Series [1] deals with catfish. Kind of series: In vivo vanadate concentration titration, toxicity profile (immersion).
Series [2] has as its system NCC from stressed fish (lysis of IM-9 target cells). Conditions: Table 9. The protocol: (§1) A ^51 Cr release assay was used to determine cytotoxicity. Target cells at 1-2×10^6 cells/ml were labeled with 100 μCi of sodium chromate (Amersham, Arlington Heights, Ill.). NCC effector cells were treated as previously described [Evans et al. (1988) supra], centrifuged (500 g), and resuspended in media and added at different E:T ratios to the labeled target cells in round-bottomed 96-well microtiter plates. This mixture was incubated (25° C.) for 4-6 hours and 100 μl of each supernatant was removed to determine radioactivity (Beckman Biogamma II Counter; Beckman Instruments, Irvine, Calif.). The results are expressed as either percentage specific release (SR)=[(test release--spontaneous release)/(total release--spontaneous release)]×100; percent inhibition=[(percentage control SR--percentage test SR)/percentage control SR]×100; and percentage increase=(percentage test SR--percentage control SR)/percentage control SR.
A common observation in fish exposed to stress, e.g., toxicants, drastic temperature changes, handling, etc., is the temporary loss of NCC activity.

The next series relates to NCC. The following applies: relatively high concentrations.
The test system of series [3] is catfish.
Series [4] concerns NCC (lysis of IM-9 target cells). Conditions: for Percentage of control (NCC cytotoxic activity): 120 minutes. The protocol:
FIG. 4. Individual and combined effects of phosphatase inhibitors on NCC cytotoxicity, NCC (7×10^5 cells) were incubated with either media (.diamond.), vanadate (Δ) (5 mM). NaF (.smallcircle.) (20 mM), or both vanadate and NaF (.quadrature.) for the indicated time periods before addition to labeled IM-9 target cells.
FIG. 5. Effects of removal of Na3 VO4 on NCC activation. NCC were harvested, incubated for three hours, washed, counted and added to duplicate tubes containing either media alone or media containing 2.5, 5 and 10 mM vanadate. Following a 90 minutes incubation time, the cells were either washed and resuspended in media (closed circles) or added directly (open circles) to wells containing ^51 chromium labeled IM-9 target cells (E:T ratio 40:1).
FIG. 6. Effects of removal of NaF on NCC activation. NCC were harvested, incubated for three hours in media, washed, counted and added to duplicate tubes containing media alone or in the presence of 5, 10 and 20 mM NaF. Following a 90 minutes treatment time, NCC were either washed (closed circles) or added directly (open circles) to wells containing labeled IM-9 target cells (E:t ratio 40:1).
FIG. 7. Effects of Na3 VO4 on NCC with different levels of cytotoxicity. NCC were harvested from anterior kidneys of fish from three different sources. The cells were incubated in media for three hours, washed, counted and added to test tubes containing either media alone or media with 2.5, 5 and 10 mM vanadate. Following a two hours incubation time, the effectors were added to wells containing labeled IM-9 cells at a 40:1 E:T ratio.
FIG. 8. Effects of NaF on NCC with different levels of cytotoxicity. NCC were harvested from anterior kidneys of fish from three different sources. The cells were incubated in media for three hours, washed, counted and added to media or media with 5, 10 and 20 mM NaF. Following a two-hour incubation, NCC were added to wells containing ^51 chromium labeled IM-9 target cells for a final E:T ratio of 40:1.
as §1
NCC were obtained as previously described [Graves et al. (1984) supra]; Evans et al. (1984) supra]. […] NCC were then washed and resuspended at 20×10^6 cells/ml, and 35 μl aliquots were added to test tubes containing 315 μl media only (media control) or media containing the indicated treatments. After 2 hr incubation, the cells were mixed with ^51 Cr-labeled IM-9 target cells and incubated for 4-6 hours ([…]). Supernatants were harvested and cytotoxicity levels were calculated as previously described.
Membrane phosphorylation is maintained through a delicate equilibrium between cellular kinase and phosphatase activities.
In further studies, NCC were treated with different concentrations of protein phosphatase inhibitors for two hours and labeled IM-9 target cells were added for a four-hour microcytotoxicity assay (Table 8).

Where two headings read alike, the source gives them in different places. Some results are limits rather than exact numbers.

The text below walks through data of patent US5593678A, “Protection of teleost fish” (University of Georgia Research Foundation, priority 1994, dated 1997).

With sodium orthovanadate, the “nonspecific toxicity (release of chromium^51 from IM-9 targets)” value with IM-9 target cells is “less than 10%”. Further, the well tolerated concentration in the series on catfish [1] is listed as at most 0.05 mM. Further, the “cytotoxic activity of NCC from stressed fish” value in series [2] is “augmented cytotoxic activity from essentially zero to relatively high levels”; in series [2] (listed as sodium vanadate), “significantly increased lysis of target cells”. Moreover, the “toxicity to NCC” value in the series on NCC was “not toxic to NCC”. The “concentration at which toxic responses were not observed” value with catfish [3] (exposed one time, immersion) is 0,025-0,100 mM. For the same substance, the “concentration toxic to catfish” value in the series with catfish [3] (immersion) was “greater than 0.125 mM”. Moreover, in the series on catfish [3] (in vivo), the “concentration lethal to live fish” value was at least 2500 µM. For the same substance, the “Percentage of control (NCC cytotoxic activity)” value in series [4] (2.5 mM, E:T 25:1) was found to be 494.4%; in series [4] (2.5 mM, E:T 50:1) it was 155.3%; in series [4] (2.5 mM, E:T 100:1), 148.6%; in series [4] (5 mM, E:T 25:1) it was 664.4%; in series [4] (5 mM, E:T 50:1) it was 212.4%; in series [4] (5 mM, E:T 100:1), 162.1%. Moreover, the “Percentage of control (NCC cytotoxic activity)” value in series [4] (10 mM, E:T 25:1) stood at 897.1%; in series [4] (10 mM, E:T 50:1), 225.8%; in series [4] (10 mM, E:T 100:1) it was 159.1%. Further, the “incubation time for maximum activation of cytotoxicity” value in series [4] (FIG. 4) was 60 min. The “cytotoxicity in presence of inhibitor, normal NCC” value in series [4] (FIG. 5, FIG. 6) is recorded as “significant increased cytotoxicity”. For the same substance, the “fish responders with low, medium, high cytotoxicity” value in series [4] (FIG. 7, FIG. 8) is reported as “The greatest effects were observed with the low cytotoxicity groups”. The “response of NCC with low control cytotoxicity” value in series [4] (NCC with 2.0% control Specific Release, FIG. 7) is reported as “highly responsive”. Also, the “effect on NCC cytotoxicity” value in series [4] (Table 7) is reported as “activated the cytotoxicity of NCC”.
